Target: D(2) dopamine receptor (Homo sapiens, UniProt P14416)
Assay: biochemical

Chains of the proteins cited; added tags and fusions are not shown.
UniProt P14416, whole entry: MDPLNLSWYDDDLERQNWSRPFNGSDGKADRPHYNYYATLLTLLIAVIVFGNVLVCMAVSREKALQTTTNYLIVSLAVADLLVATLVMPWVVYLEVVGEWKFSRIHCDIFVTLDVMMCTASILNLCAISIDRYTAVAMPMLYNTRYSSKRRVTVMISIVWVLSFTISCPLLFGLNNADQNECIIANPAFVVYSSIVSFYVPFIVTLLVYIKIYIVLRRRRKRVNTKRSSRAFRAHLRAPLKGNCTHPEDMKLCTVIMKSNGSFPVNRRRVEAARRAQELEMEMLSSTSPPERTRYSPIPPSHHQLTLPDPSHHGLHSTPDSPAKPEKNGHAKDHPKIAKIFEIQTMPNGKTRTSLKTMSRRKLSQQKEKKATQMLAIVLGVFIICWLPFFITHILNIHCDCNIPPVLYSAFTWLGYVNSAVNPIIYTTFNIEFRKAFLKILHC

SMILES: O=C(NCCCCN1CCN(c2cccc(Cl)c2Cl)CC1)c1ccc(I)cc1
- Ki: 51.4 nM

Source: ChEMBL document CHEMBL1139520, “Dopamine D3 receptor partial agonists and antagonists as potential drug abuse therapeutic agents” (J Med Chem, 2005)
